Source: patent US20180271853A1, “Method of Use for Inhibitors of Epidermal Growth Factor Receptor Variant III” (METASTAT, INC., priority 2015, published 2018)

Key:
[1] = tested on: tumors expressing EGFR-viii; details: clinical studies evaluating reversible or covalent EGFR inhibitors in GBM; cited from earlier work
[2] = biological target: phosphoY1173-EGFRviii expressed in U87MG tumor cells (Homo sapiens, UniProt P00533, DELINS30-297G); experiment: Inhibition of phosphoY1173-EGFRviii in U87MG tumor cells engineered to express EGFR-viii (in-cell ELISA); details: FIG. 1

Row | Compound | benefit for GBM in clinical studies [1] | activity against EGFR-viii [2]
1 | COc1cc2ncnc(Nc3ccc(F)c(Cl)c3)c2cc1OCCCN1CCOCC1 [gefitinib] | failed to demonstrate significant benefit | 
2 | C=CC(=O)Nc1cccc(Oc2nc(Nc3ccc(N4CCN(C)CC4)cc3OC)ncc2Cl)c1 [WZ4002] |  | weak activity
